{"sequences": {"note": "Protein sequences, listed by entry. Tags and fused reporters are not part of them.", "UniProt Q00987, whole entry": "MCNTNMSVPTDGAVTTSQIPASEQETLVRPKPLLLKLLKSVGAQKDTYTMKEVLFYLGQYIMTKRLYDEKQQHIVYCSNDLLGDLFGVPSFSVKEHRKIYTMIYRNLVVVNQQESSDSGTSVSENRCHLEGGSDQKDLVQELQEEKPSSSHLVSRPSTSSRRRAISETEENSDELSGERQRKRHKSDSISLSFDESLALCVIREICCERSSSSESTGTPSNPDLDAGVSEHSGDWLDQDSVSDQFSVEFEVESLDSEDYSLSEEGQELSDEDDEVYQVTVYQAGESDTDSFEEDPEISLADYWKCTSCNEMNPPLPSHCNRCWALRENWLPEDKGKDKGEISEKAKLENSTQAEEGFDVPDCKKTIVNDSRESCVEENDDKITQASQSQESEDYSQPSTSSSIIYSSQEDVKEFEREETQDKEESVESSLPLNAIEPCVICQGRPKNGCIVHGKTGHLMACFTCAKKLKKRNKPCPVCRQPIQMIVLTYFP"}, "source": "paper PMC6002838", "about": "(The Journal of antibiotics, 2017)", "molecular_target": "MDM2-p53 complex (Homo sapiens, UniProt Q00987)", "test": "MDM2-p53 complex inhibition assay", "format": "binding", "conditions": "100 μM"}
{"smiles": "COc1ccc(C2=N[C@@H](c3ccc(Cl)cc3)[C@@H](c3ccc(Cl)cc3)N2C(=O)N2CCNC(=O)C2)c(OC(C)C)c1", "note": "[nutlin-3a, Nutlin-3a]", "values": [{"measurement": "Disruption of MDM2-p53 complex (post-treat)", "setting": "compounds added after formation of the complex", "value": "around 28%"}, {"measurement": "Inhibition of MDM2-p53 complex formation (pre-treat)", "setting": "compounds added before formation of the complex", "value": 62, "unit": "%"}]}
